According to ChEMBL document CHEMBL4270561, “Biological activity of doubly modified salinomycin analogs - Evaluation in vitro and ex vivo” (Eur J Med Chem, 2018):

Test: Cell cycle arrest in human ALL5 cells assessed as accumulation at S-phase at 5 times antiproliferative IC50 after 24 hrs by propidium iodide staining based flow cytometry (reference value: 6.76%)
Assay type: functional

Q: For COc1cccc2c1C(=O)c1c(O)c3c(c(O)c1C2=O)C[C@@](O)(C(=O)CO)C[C@@H]3O[C@H]1C[C@H](N)[C@H](O)[C@H](C)O1 [DOXORUBICIN], which Activity is on record?
A: The Activity was 4.07%.
